Reference: patent US20250041415A1, “CYTOTOXIC INNATE LYMPHOID CELL AND USES THEREOF” (Umoja Biopharma, Inc., priority 2021, published 2025)

System: Vδ2+ T cells transduced with RACR-FRB-mCherry
Test: RACR-expansion of blood-derived Vδ2+ T cells
Type: cell-based, human
Conditions: IL-2 500 IU/mL
Experimental: On day 0, peripheral blood monocular cells (PBMCs) were cultured in a 37° C. incubator with 5 μM Zometa and IL-2 (500 IU/mL) in complete RPMI (cRPMI) media containing RPMI1640, 10% FBS, 1× Pen-Strep, and 1× Glutamax for initial in vitro expansion. On day 5, the cells were washed in cRPMI and transduced with lentivirus containing RACR-FRB-mCherry (described in Example 5; at an MOI of 10 in the presence of IL-2 (500 IU/mL). Cells were split in cRPMI media containing 500 IU/mL IL-2 every 2-3 days. An aliquot was collected and initial transduction of cells was assessed by mCherry via flow cytometry on day 9.
Vδ2+ T cells were then cultured in wells containing fresh cRPMI with either IL-2 (500 IU/mL), Rapamycin (10 nM), or AP21967 (A/C Heterodimerizer-Takara®, 10 nM) to initiate RACR signaling for an additional 5 days. On day 14, an aliquot of the cells was collected and washed, stained for V32, and RACR transduction was measured by mCherry. Percent Vδ2+ RACR+ cells, as well as number of transduced V32+ cells measured by counting beads was assessed by detection of V82 stain and mCherry via flow cytometry. Similarly, on day 21, an aliquot of cells was again measured for percent and number of Vδ2+ RACR+ cells via flow cytometry.

For “IL-2: interleukin 2, comparator cytokine”, the “total number of transduced Vδ2+ cells, day 21 compared to day 14” value was “lower total number of transduced Vδ2+ cells”.
